Usually IC50 stands for the concentration that gives 50% inhibition. A lower IC50 goes with inhibition by little substance. What is called Ki is a measure of affinity in units of concentration, obtained from inhibition or displacement. Higher therefore signals a looser hold on the target.

The test system of the assay is rat brain muscarinic receptors (all muscarinic receptor subtypes). Kind of assay: Displacement of [^3H]NMS from rat brain. The settings on record: L = 0.48 nM, KD = 0.2 nM, tested form: bromide.

Molecule `COc1ccc2cc(C(C)C(=O)OCCCCCCCC[n+]3cccc(OC(=O)N(C)C)c3)ccc2c1` (centres unmarked) gave an IC50 of 23 µM and an inhibition constant (Ki) of 6.9 µM.

Values taken from patent US20020160988A1 (priority 2001, published 2002).
